# Earlier results in patent US20210145846A1 (published 2021).
# Protein sequences, listed by entry. Tags and fused reporters are not part of them.
# UniProt P03372, whole entry, species assumed: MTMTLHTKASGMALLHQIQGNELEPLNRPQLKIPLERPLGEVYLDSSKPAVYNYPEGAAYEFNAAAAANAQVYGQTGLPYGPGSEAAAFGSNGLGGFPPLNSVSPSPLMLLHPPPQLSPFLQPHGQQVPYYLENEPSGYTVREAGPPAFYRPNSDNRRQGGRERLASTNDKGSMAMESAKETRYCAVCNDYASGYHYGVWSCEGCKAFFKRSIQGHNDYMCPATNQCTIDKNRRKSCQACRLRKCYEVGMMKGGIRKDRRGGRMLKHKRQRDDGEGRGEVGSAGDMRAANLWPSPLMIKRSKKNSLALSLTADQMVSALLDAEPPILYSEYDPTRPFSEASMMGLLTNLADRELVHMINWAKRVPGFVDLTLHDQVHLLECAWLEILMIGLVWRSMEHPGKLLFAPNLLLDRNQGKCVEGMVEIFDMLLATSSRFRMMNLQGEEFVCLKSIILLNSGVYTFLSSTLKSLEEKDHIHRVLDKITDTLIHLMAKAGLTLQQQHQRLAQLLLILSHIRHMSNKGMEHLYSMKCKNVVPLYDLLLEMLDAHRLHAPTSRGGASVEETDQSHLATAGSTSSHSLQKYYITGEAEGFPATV
# Molecular target: estrogen receptor (ER) (Homo sapiens, UniProt P03372)
# Details: competitive ER antagonist; cited from earlier work
compound,measurement,value
"C[C@]12CC[C@@H]3c4ccc(O)cc4C[C@@H](CCCCCCCCC[S+]([O-])CCCC(F)(F)C(F)(F)F)[C@H]3[C@@H]1CC[C@@H]2O (stereo partly drawn) [Fulvestrant, 7α-[9-[(4,4,5,5,5-pentafluoropentyl)sulfinyl]nonyl]-estra-1,3,5(10)-triene-3,17β-diol]",Affinity for estrogen receptor,comparable to that of estradiol
